Source: PubChem BioAssay AID504810 (National Center for Advancing Translational Sciences (NCATS), 2011)
The entries are a selection whose mix differs from that of the whole data set. Active and inactive are the calls of the source.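 How the source made its calls: active means activity change below a set negative limit, meaning inhibition stronger than a set level (cut at about -70% in these data); inconclusive means activity change between two set negative limits; inactive means the rest.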

Sequences of proteins named here, by UniProt entry; tags and fusion partners are left off.
UniProt P16473, whole entry: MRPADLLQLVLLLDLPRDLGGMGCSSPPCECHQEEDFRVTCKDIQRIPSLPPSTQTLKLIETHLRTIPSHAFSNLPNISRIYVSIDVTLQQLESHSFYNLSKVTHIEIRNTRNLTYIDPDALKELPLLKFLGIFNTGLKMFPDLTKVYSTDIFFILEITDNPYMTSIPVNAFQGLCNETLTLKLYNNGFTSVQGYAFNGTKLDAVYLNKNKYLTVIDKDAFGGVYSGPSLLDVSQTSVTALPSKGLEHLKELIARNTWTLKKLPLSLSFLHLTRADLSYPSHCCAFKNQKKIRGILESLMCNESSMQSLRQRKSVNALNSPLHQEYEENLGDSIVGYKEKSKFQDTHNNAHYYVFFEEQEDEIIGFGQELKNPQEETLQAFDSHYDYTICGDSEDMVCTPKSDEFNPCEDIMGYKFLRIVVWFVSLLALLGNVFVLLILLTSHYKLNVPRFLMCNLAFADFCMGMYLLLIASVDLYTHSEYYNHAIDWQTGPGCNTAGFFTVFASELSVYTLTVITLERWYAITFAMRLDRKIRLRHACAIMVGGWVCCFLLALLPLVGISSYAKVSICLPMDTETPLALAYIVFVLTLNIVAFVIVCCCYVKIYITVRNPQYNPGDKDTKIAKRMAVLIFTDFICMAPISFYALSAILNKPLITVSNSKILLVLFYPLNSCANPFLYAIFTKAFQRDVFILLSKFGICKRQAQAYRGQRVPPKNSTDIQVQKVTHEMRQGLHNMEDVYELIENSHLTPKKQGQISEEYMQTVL

target: Thyrotropin receptor (Homo sapiens) (UniProt P16473); test: Antagonists of the Thyroid Stimulating Hormone Receptor: HTS campaign; conditions: TSHR-expressing cells, TSH-stimulated cAMP HTRF, 2 h; at 11.5 µM; hits give low values
Source text: The thyroid-stimulating hormone receptor (TSHR) is a member of the 7 trans-membrane-spanning receptor (7TMR) family of cell surface receptors. TSHR-mediated hyperthyroidism is important in thyroid pathology. The development of small molecule antagonists of TSHR may lead to therapeutic approaches for TSHR-mediated hyperthyroidism caused by constitutively activating mutations or stimulating auto-antibodies associated with Graves' disease. Graves' disease is the leading cause of hyperthyroidism and is caused by autoantibodies that stimulate TSHR (TsAbs) causing thyroid growth and unregulated overproduction of thyroid hormones and existing treatments have liabilities (agranulocytosis). In addition, TSHRs are known to be expressed in multiple extrathyroidal tissues including bone, brain, kidney, testis, fat and cells of the immune system but the role of the TSHR in these tissues is not clear. Therefore, TSHR antagonists/inverse agonists could be used as probes of extrathyroidal TSHR function. Finally, TSHR inverse agonists, which are a subclass of antagonists that inhibit agonist-independent (or basal or constitutive) TSHR signaling, could be used to inhibit TSH-independent signaling in patients with recurrent or metastatic thyroid cancer who are receiving thyroid hormone to suppress TSH. In collaboration between scientist from the NCGC and the NIDDK, a miniaturized HTRF high-throughput screen was developed. It's a cell based assay, where an anti cAMP antibody contains a fluorescent cryptate tag (excitation 337 nm; emission 620 nm) and the acceptor is cAMP-d2 (excitation 620 nm; emission 665 nm). When antibody and cAMP-d2 interact and are excited by a 337 nm light, a FRET occurs resulting in emission at 665 nm. The assay is competition between cAMP-d2 and cAMP (from the cell lysate). The homogeneous protocol allows for one step dispense after stimulation that is automation friendly. NIH Chemical Genomics Center [NCGC] NIH Molecular Libraries Probe Centers Network [MLPCN] […]
1. […] The result is obtained by using a ViewLux read-out with HTRF settings.
On the % scale 0 is the no-effect control and ±100 the full control effect.

| Compound | activity change, negative = inhibition |
| --- | --- |
| CCC(=O)N(c1ccccc1)C1CCN(CCc2ccccc2)CC1 | inactive: -6.67% |
| CCC(=O)N(c1ccccc1)C1(COC)CCN(CCc2cccs2)CC1 | inactive: 24% |
| CCC(=O)N(c1ccccc1)C1(COC)CCN(CCn2nnn(CC)c2=O)CC1 | inactive: 1.44% |
